We go through 30 compounds from PubChem BioAssay AID540295 (The Scripps Research Institute Molecular Screening Center, 2011).

Sequences of proteins named here, by UniProt entry; tags and fusion partners are left off.
UniProt P32245, whole entry: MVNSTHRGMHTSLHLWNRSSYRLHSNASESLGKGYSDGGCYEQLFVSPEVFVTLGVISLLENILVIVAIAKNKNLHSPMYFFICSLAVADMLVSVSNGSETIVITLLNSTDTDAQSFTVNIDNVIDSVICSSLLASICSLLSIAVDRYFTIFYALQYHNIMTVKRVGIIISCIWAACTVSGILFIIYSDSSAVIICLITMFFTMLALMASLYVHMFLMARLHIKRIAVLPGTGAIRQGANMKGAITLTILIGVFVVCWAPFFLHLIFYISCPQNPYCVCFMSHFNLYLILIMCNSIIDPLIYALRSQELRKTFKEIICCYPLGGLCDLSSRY

As usually defined, the inhibition is the drop in the measured response relative to a control, in per cent.

The list shows a part of the results, in another mix than the full data. Active and inactive are the calls of the source.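 How the source made its calls: active means inhibition above its plate's cutoff, the mean of tested wells on that plate plus 3 SD (cut at about 29% in these data); inactive means the rest.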

This experiment deals with Melanocortin receptor 4 (Homo sapiens) (UniProt P32245). The experiment in a line: MC4R antagonists of cAMP signaling, primary screen, cell-based, TR-FRET, antagonist arm of biased-ligand search (AID 540295).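 Further: 0% = Melanotan II alone and 100% = Melanotan II plus saturating MCL0020.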 Particulars: MC4R-expressing cells, MTII-stimulated cAMP, LANCE TR-FRET; at 6.5 µM; hits give high values. On the technique in general: TR-FRET usually uses a lanthanide donor and a delayed reading to cut background.
Turning to `CCN1CCC(Nc2cccc(F)c2)CC1`, the inhibition is inactive: 10.7%.

Take `Cc1ccccc1NC1(C#N)CCN(Cc2ccccc2)CC1`: the inhibition was inactive: 3.01%.

With `CN(C)c1ccc(C(=O)NCC2(N3CCCCC3)CCCCC2)cc1`, the inhibition is inactive: 12.5%.

On to `Cn1c(=O)[nH]cc(N(CCCl)CCCl)c1=O`, for which the inhibition was inactive: 6.56%.

Consider `O=C(NCC1(N2CCCCC2)CCCCC1)c1ccco1`, for which the inhibition is inactive: 11.1%.

Turning to `COc1cc(OC)cc(C(=O)NCC2(N3CCCCC3)CCCCC2)c1`, the inhibition was inactive: 12.4%.

With `CC(=O)N(c1ccccc1)C1CCNCC1`, the inhibition was inactive: 0.15%.

With `Cc1ccc(NC2(C#N)CCN(Cc3ccccc3)CC2)cc1`, the inhibition is inactive: -0.5%.

On to `Fc1ccccc1NC1CCN(Cc2ccccc2)CC1`, for which the inhibition is inactive: -1.34%.

In the case of `Cc1ccc(C(=O)NCC2(N3CCCCC3)CCCCC2)o1`, the inhibition is inactive: 5.48%.

As for `CCC(CO)(C(=O)OC1CN2CCC1CC2)c1ccccc1` (stereo not given), the inhibition is inactive: -2.45%.

For `COc1cccc(C(=O)N(c2cc(C)cc(C)c2)C2CCN(C(=O)OC(C)(C)C)CC2)c1`, the inhibition was inactive: 3.62%.

With `COc1cc(OC)cc(C(=O)NCC2(N3CCOCC3)CCCCC2)c1`, the inhibition is inactive: -0.15%.

For `CN1CCC(Nc2ccc(Cl)cc2)CC1`, the inhibition was inactive: 11.5%.

As for `CN1CCC(Nc2ccc(F)c(Cl)c2)CC1`, the inhibition is inactive: 0.09%.

As to `CCOc1ncccc1C(=O)NCC1(N2CCOCC2)CCCCC1`, the inhibition is inactive: 17.2%.

In the case of `CCCOc1ccc(C(=O)NCC2(N(C)C)CCCCC2)cc1`, the inhibition was inactive: 11.2%.

`O=C(O)C1(Nc2ccccc2)CCN(Cc2ccccc2)CC1`: the inhibition was inactive: 9.16%.

On to `CC(C)(C)OC(=O)N1CCC(Nc2ccccc2)CC1`, for which the inhibition is inactive: -9.49%.

With `N/C(=N\O)c1c(N)no[n+]1[O-]`, the inhibition is inactive: 21.4%.

For `CCOC(=O)N1CCC(Nc2ccc(C)cc2)CC1`, the inhibition is inactive: -0.26%.

With `O=C(OC1CN2CCC1CC2)C1c2ccccc2C=Cc2ccccc21` (stereo not given), the inhibition is inactive: 7.21%.

Take `O=C(NCC1(N2CCOCC2)CCCCC1)c1cc(Br)ccc1Cl`: the inhibition was inactive: 12%.

For `COc1cc(C(=O)NCC2(N3CCOCC3)CCCCC2)cc(OC)c1C`, the inhibition was inactive: 3.65%.

Regarding `COc1ccc(C(=O)NCC2(N3CCOCC3)CCCCC2)cc1OC`, the inhibition was inactive: -4.92%.

With `CCCN1CCC(Nc2cc(OC)cc(OC)c2)CC1`, the inhibition was inactive: -5.03%.

With `Cc1cc(N(CCCl)CCCl)ccc1C=O`, the inhibition was inactive: -3.06%.

As to `c1ccc(CN2CCC(Nc3ccccc3)CC2)cc1`, the inhibition was inactive: 7.97%.

Regarding `CN(C)C1(CNC(=O)c2cccc(C#N)c2)CCCCC1`, the inhibition was inactive: 1.45%.

Regarding `CC(C)(C)OC(=O)N1CCC(N(C(=O)c2ccccc2)c2ccc(Cl)cc2)CC1`, the inhibition was inactive: 9.06%.
